Experimental data published in ChEMBL document CHEMBL2434907, “Synthesis and SAR studies of benzimidazolone derivatives as histamine H3-receptor antagonists” (Bioorg Med Chem Lett, 2013).

Protein sequences, listed by entry. Tags and fused reporters are not part of them. Lines headed by an entry give the natural chain unless they say otherwise; changes in a name come on top.
UniProt Q9JI35: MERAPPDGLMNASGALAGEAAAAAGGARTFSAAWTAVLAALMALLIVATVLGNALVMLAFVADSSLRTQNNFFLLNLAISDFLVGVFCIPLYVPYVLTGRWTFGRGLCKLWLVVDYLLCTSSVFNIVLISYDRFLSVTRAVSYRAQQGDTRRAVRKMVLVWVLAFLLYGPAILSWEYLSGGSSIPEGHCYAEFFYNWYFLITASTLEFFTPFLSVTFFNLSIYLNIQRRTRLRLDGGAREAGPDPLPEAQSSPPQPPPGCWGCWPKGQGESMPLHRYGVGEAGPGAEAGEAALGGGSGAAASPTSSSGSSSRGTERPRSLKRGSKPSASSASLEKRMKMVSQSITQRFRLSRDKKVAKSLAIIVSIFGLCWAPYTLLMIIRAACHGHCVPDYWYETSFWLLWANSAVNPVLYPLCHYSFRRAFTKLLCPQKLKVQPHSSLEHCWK

Molecular target: Histamine H3 receptor (Cavia porcellus, UniProt Q9JI35)
Test: Displacement of [3H]-N-alpha-methyl histamine from histamine H3 receptor in guinea pig brain homogenates
Format: tissue-based

| Structure (SMILES) | Ki |
| --- | --- |
| COCCn1c(=O)n(C2CCN(C(=O)C3CCN(Cc4ccnc(N)c4)CC3)CC2)c2ccccc21 | 1.5 nM |
| Nc1cc(CN2CCC(C(=O)N3CCC(n4c(=O)n(CC(F)(F)F)c5cc(F)ccc54)CC3)CC2)ccn1 | 1.5 nM |
| Nc1cc(CN2CCC(C(=O)N3CCC(n4c(=O)n(-c5ccc(F)c(F)c5)c5cc(F)ccc54)CC3)CC2)ccn1 | 2.8 nM |
| Nc1cc(CN2CCC(C(=O)N3CCC(n4c(=O)n(-c5ncccn5)c5cc(F)ccc54)CC3)CC2)ccn1 | 4 nM |
